miR-21 FLuc – raises the signal of a miR-21 reporter; HeLa miR-21 FLuc reporter, luciferase, 48 h; Potency, µM (top dose mostly 38.3 µM), for inactives: at the highest dose reporter change, positive = more light; AID 2288; 340,000 tested, under 10 active; active = well fitted rising curve with a large enough effect; inconclusive = small, poorly fitted or top-dose-only effect; inactive = no such curve, though single readings can be large or run the other way;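 note: % of control where 0% means no effect; miR-21 action dims this reporter so a rising signal means less miR-21 action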
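Using DMEM plus 10% FBS, HeLa miR-21-FLuc cells are incubated with test compounds (final up to about 40uM) for 48 hours; firefly luciferase signal is then imaged following reagent-mediated lysis.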
Nrf2 block – Nrf2 pathway inhibition | A549 ARE-Fluc reporter, luciferase luminescence, 18-24 h | Potency, µM (doses to about 46 µM), without a hit: top-dose activity change, negative = inhibition, usual class: inhibitors | hit rate 2.1% among 360,000 | AID 504444; also: potency is read from the fitted curve at half-maximal effect; % is scaled to controls: 0 for no effect and ±100 for the full control effect; nearly all actives have a fitted effect of over 60% in size
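Two sequential reads on A549 ARE_Fluc cells exposed to compound for 18-24 h: a CellTiter-Fluor fluorescence read for viability, then a luciferase luminescence read for Nrf2/ARE activity.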
ClpP mod – qHTS Assay for Activators of ClpP | ATP-dependent Clp protease proteolytic subunit (Bacillus subtilis (strain 168)), P80244 | purified B. subtilis ClpP, FRET peptide cleavage, 20 min | Potency, µM (doses to about 57.5 µM), without a hit: at the top dose activity change, negative = active | hit rate 1.9% among 340,000; active = well fitted falling curve with a large enough effect; inconclusive = small, poorly fitted or top-dose-only effect; inactive = no such curve, though single readings can be large or run the other way; also: potency is read from the fitted curve at half-maximal effect; the source files actives as falling curves though it sought activators and does not explain the sign; nearly all actives have a fitted effect of over 65% in size
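Purified B. subtilis ClpP, 10 microg/mL final in Tris/HCl pH8 with KCl, BSA, glycerol and Tween-20, cleaved an Abz/nitrotyrosine-quenched decapeptide. Fluorescence (ex 320, em 430) was read at 0 and 20 min at room temperature. Delta was normalized to 5.8 microM ADEP and DMSO/no-enzyme controls.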
A549 tox – A549 cytotoxicity, counter-screen for Nrf2 inhibitors; A549 ARE-Fluc cells, CellTiter-Fluor viability, 18-24 h; hit rate 0.16% among 390,000; Potency, µM (top dose mostly 46 µM), for inactives: top-dose activity change, negative = cytotoxicity, actives largely listed as inhibitors; AID 504648; also: potency is read from the fitted curve at half-maximal effect; % is scaled to controls: 0 for no effect and ±100 for the full control effect
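A549 ARE-Fluc cells in 5% FBS OPTI-MEM, 5000 cells/well, rested 2 h then exposed to compounds in concentration-response for 18-24 h at 37 °C. Viability by CellTiter-Fluor fluorescence (Ex 405/Em 525) after 30 min; luciferase luminescence (BugLite, 15 min, RT) read afterwards.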
TCR activator – T cell receptor activation; primary human leukocytes, anti-CD3, IL-2 HTRF, 48 h; Potency, µM (series often up to 9.22 µM), without a hit: at the top dose activation of IL-2 secretion, actives largely listed as activators; 330,000 tested, under 10 active; AID 504894; also: % of control where 0% means no effect
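Using a-CD3 beads without co-stimulation, primary human leukocytes were exposed to compounds for 48 hr. An HTRF IL-2 kit measured the cytokine, with europium-to-d2 energy transfer producing emission at 665nm upon 320nm excitation.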
Nrf2 ARE act – activates Nrf2 signaling | AREc32 ARE-luciferase reporter (MCF7-derived line), luminescence, 24 h | Potency, µM (doses to about 46.1 µM), for the others: at the highest dose activation, hits mostly activators | AID 624171 | hit rate 0.31% among 410,000; also: potency is read from the fitted curve at half-maximal effect; % of control where 0% means no effect; nearly all actives have a fitted effect of over 65% in size
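ARE activation measured as luciferase luminescence (Steady-Glo, 30 min RT) in AREc32_Fluc cells after 24 hr compound exposure at 37 deg C, 5% CO2; cells seeded overnight at 1000/well in OPTI-MEM, 5% FBS.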
Active calls of the source: *; [ ] = remark or other dose. In the library only some 3.7% were active in any assay of this set; here they are far more common. Unless noted, calls follow the shape of the dose curve; as a rule, active = well fitted curve in the direction sought with a large enough effect; inconclusive = small, poorly fitted or top-dose-only effect, or another doubt; inactive = no such curve, though single readings can be large; an effect the other way counts as inactive or inconclusive.

Screening O=C(CSc1ccccc1F)NCCN1C(=O)CSC1=O returned Nrf2 block 8.8%, ClpP mod 0.9%, A549 tox -8.9%, TCR activator 3.0% and Nrf2 ARE act -0.1%.
O=C(CSc1nc(-c2ccccc2)c(-c2ccccc2)[nH]1)NCCN1C(=O)CSC1=O was read as miR-21 FLuc 26.1%, Nrf2 block -8.4%, ClpP mod 31.6µM*, A549 tox -21.8%, TCR activator -2.9% and Nrf2 ARE act 1.6%.
O=c1c2c(nc3cc(-c4ccccc4)[nH]n13)CCS2 was read as miR-21 FLuc -50.3%, Nrf2 block inconclusive, ClpP mod 10µM*, A549 tox 3.8%, TCR activator 0.2% and Nrf2 ARE act 4.2%.
O=c1c2c(nc3cc(-c4ccccc4Cl)[nH]n13)CCS2 was read as miR-21 FLuc -48.5%, Nrf2 block inconclusive, A549 tox 0.9%, TCR activator 0.0% and Nrf2 ARE act 0.2%.
`COc1ccc(-c2cc3nc4c(c(=O)n3[nH]2)CCC4)cc1` gave miR-21 FLuc -39.0%, Nrf2 block inconclusive, ClpP mod 22.4µM*, A549 tox 0.3%, TCR activator 7.4% and Nrf2 ARE act 2.5%.
`O=c1c2c(nc3cc(-c4ccccc4)[nH]n13)CCC2` gave miR-21 FLuc -37.1%, ClpP mod 11.2µM*, A549 tox -3.8%, TCR activator -3.1% and Nrf2 ARE act 2.6%.
Screening CCc1nn2c(=O)cc(NC3CNC3)nc2s1 returned Nrf2 block 7.6% and A549 tox -0.6%.
For CC(=O)Nc1cc(-c2cccc(N)c2)cn2c(-c3ccccc3)cnc12 the results were ClpP mod -12.0% and Nrf2 ARE act 6.3%.
Screening Cc1ccc(S(=O)(=O)NNC(=O)c2ccc(C(=O)N(c3ccccc3)c3ccccc3)cc2)cc1 returned ClpP mod -27.6%.
For OC1(c2ccc(OC(F)F)cc2)CSC(=Nc2cccnc2)N1Cc1ccco1 (configuration not stated) the results were miR-21 FLuc inconclusive, Nrf2 block inconclusive, A549 tox -29.9%, TCR activator -9.6% and Nrf2 ARE act -0.7%.
`COCCCn1c(-c2ccc(S(=O)(=O)N3CCOCC3)cc2)csc1=Nc1ccccc1` gave miR-21 FLuc 0.6%, Nrf2 block 16.4µM*, ClpP mod -5.3%, A549 tox 0.6%, TCR activator 5.3% and Nrf2 ARE act 3.3%.
`COCCn1c(-c2ccc(Br)cc2)csc1=Nc1cccnc1` gave miR-21 FLuc 15.1%, Nrf2 block 18.4µM*, A549 tox -15.0%, TCR activator 3.6% and Nrf2 ARE act 2.6%.
FC(F)Oc1ccc(-c2csc(=Nc3cccnc3)n2CC2CCCO2)cc1 (configuration not stated) was read as miR-21 FLuc 26.5%, Nrf2 block 14.6µM*, ClpP mod 1.8%, A549 tox 0.5%, TCR activator 7.2%[46.1 µM] and Nrf2 ARE act 0.6%.
`COc1ccc(N=c2scc(-c3ccc(OC)cc3)n2CCO)cc1` gave miR-21 FLuc -11.7%, Nrf2 block 18.4µM*, ClpP mod 0.2%, A549 tox -23.6%, TCR activator 11.5%[46.1 µM] and Nrf2 ARE act 1.9%.
`Clc1ccc(-c2csc(=Nc3cccnc3)n2CCCn2ccnc2)cc1Cl` gave miR-21 FLuc inconclusive, Nrf2 block inconclusive, ClpP mod -1.4%, A549 tox -8.2%, TCR activator 3.8%[46.1 µM] and Nrf2 ARE act -0.6%.
Cc1cccn2c(=O)c3cc(C(=O)NC(C)(C)C)n(C)c3nc12 was read as miR-21 FLuc -11.8%, Nrf2 block inconclusive, ClpP mod 4.9%, A549 tox 11.2% and Nrf2 ARE act 0.7%.
For Cc1ccsc1C(=O)N(c1nc2ccccc2s1)c1c(C)cccc1C the results were miR-21 FLuc -2.1%, Nrf2 block 18.4µM*, ClpP mod inconclusive, A549 tox -7.3%, TCR activator 4.7% and Nrf2 ARE act -0.3%.
`N#CC1=C(N)Oc2cc(O)ccc2C1c1cccs1` (configuration not stated) gave miR-21 FLuc 7.0%, ClpP mod 1.1%, A549 tox -4.5%, TCR activator 6.0% and Nrf2 ARE act 0.4%.
Screening N#CC1=C(N)Oc2c(ccc3ccccc23)C1c1cccs1 (configuration not stated) returned miR-21 FLuc -7.5%, Nrf2 block inconclusive, ClpP mod -6.0%, A549 tox inconclusive, TCR activator 15.7% and Nrf2 ARE act 2.82µM*.
CCOc1ccccc1Nc1nnc(SCc2nnc(-c3cc(OC)c(OC)c(OC)c3)o2)s1 was read as miR-21 FLuc 19.0%, Nrf2 block 16.4µM*, ClpP mod 31.6µM*, A549 tox inconclusive, TCR activator -5.9%[46.1 µM] and Nrf2 ARE act 5.9%.
`Cc1ccccc1CNC(=O)Nc1ccc2c(c1)N(C)C(=O)c1ccccc1S2` gave miR-21 FLuc -3.1%, Nrf2 block 42.0%, ClpP mod 0.0%, A549 tox 0.8% and Nrf2 ARE act -3.2%.
For COc1ccc(-c2nc(-c3cccc(C)c3)no2)cc1OC the results were miR-21 FLuc -64.8%, ClpP mod 25.1µM*, A549 tox 17.0%, TCR activator 1.7%[46.1 µM] and Nrf2 ARE act 0.4%.
Cc1cc(C)cc(-c2nc(-c3ccncc3)no2)c1 was read as miR-21 FLuc -46.0%, Nrf2 block inconclusive, ClpP mod -0.1%, A549 tox 0.9%, TCR activator -61.0% and Nrf2 ARE act 0.4%.
`Cc1cccc(-c2nc(-c3ccncc3)no2)c1` gave miR-21 FLuc -45.5%, Nrf2 block inconclusive, ClpP mod 0.3%, A549 tox 2.1%, TCR activator -53.2% and Nrf2 ARE act 12.6µM*.
Screening FC(F)(F)c1cccc(-c2nc(-c3ccncc3)no2)c1 returned miR-21 FLuc -7.5%, Nrf2 block inconclusive, ClpP mod -1.2%, A549 tox -0.5%, TCR activator -5.1% and Nrf2 ARE act 11.2µM*.
Brc1cccc(-c2nc(-c3ccncc3)no2)c1 was read as miR-21 FLuc -40.9%, ClpP mod -6.7%, A549 tox 9.2%, TCR activator 1.3% and Nrf2 ARE act 11.2µM*.
O=C(O)/C=C/C(=O)c1ccc2c(c1)CCc1ccccc1-2 was read as Nrf2 block inconclusive, ClpP mod -6.8%, A549 tox inconclusive, TCR activator 1.7% and Nrf2 ARE act inconclusive.

An excerpt from above in order of count of non-hydrogen atoms, smallest number first.
Brc1cccc(-c2nc(-c3ccncc3)no2)c1 was read as miR-21 FLuc -40.9%, ClpP mod -6.7%, A549 tox 9.2%, TCR activator 1.3% and Nrf2 ARE act 11.2µM*.
For COc1ccc(-c2nc(-c3cccc(C)c3)no2)cc1OC the results were miR-21 FLuc -64.8%, ClpP mod 25.1µM*, A549 tox 17.0%, TCR activator 1.7%[46.1 µM] and Nrf2 ARE act 0.4%.
`Cc1ccccc1CNC(=O)Nc1ccc2c(c1)N(C)C(=O)c1ccccc1S2` gave miR-21 FLuc -3.1%, Nrf2 block 42.0%, ClpP mod 0.0%, A549 tox 0.8% and Nrf2 ARE act -3.2%.
